# Measured values from PubChem BioAssay AID624169 (The Scripps Research Institute Molecular Screening Center, 2012).
# Sequences of proteins named here, by UniProt entry; tags and fusion partners are left off.
# UniProt P35363, whole entry, looked up: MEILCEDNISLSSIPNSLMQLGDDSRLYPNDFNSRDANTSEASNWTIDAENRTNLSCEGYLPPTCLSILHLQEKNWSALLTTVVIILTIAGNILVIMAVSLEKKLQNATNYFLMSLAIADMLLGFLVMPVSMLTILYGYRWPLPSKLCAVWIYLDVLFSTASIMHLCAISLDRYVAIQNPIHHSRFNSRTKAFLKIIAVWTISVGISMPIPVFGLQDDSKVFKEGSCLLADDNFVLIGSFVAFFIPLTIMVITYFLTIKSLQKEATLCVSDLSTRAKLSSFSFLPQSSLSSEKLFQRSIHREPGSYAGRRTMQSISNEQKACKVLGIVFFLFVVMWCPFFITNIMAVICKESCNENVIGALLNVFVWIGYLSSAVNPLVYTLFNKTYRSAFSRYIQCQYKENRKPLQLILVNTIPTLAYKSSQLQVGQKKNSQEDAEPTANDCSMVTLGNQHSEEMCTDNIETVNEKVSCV
# The entries are a selection whose mix differs from that of the whole data set. The source made the active and inactive calls.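 How the source made its calls: active means activation above a run cutoff, the mean activation of all tested compounds plus 3 SD (cut at about 14% in these data); inactive means the rest.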
# Target: 5-hydroxytryptamine receptor 2A (Mus musculus) (UniProt P35363)
# Assay: mouse Htr2a agonists via beta-arrestin recruitment, primary screen, cell-based, luminescence (AID 624169);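 further: 0% = plate median of compound wells and 100% = 30 µM serotonin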
# Conditions: CHO-K1 mHTR2A beta-arrestin complementation, at 7.6 µM, stronger effect = higher value, percent of 30 µM serotonin response
row,SMILES,activation
1,CCN(/C(=N/P(=O)(N1CCOCC1)N1CCOCC1)N1CCOCC1)c1ccc(OC)cc1,inactive: -0.34%
2,CN(C)C(=O)OCCc1n(C)cc[n+]1C,inactive: -2.59%
3,CC(C)=N/N=C(\N)N[N+](=O)[O-],inactive: 9.58%
4,CC(C)c1nc(Nc2ccccc2)n(P(=O)(N(C)C)N(C)C)n1,inactive: 4.48%
5,c1cc(-c2nn[nH]n2)ccc1-c1nn[nH]n1,inactive: -2%
6,CC1CCN(C(=O)Oc2c(Cl)cc(Cl)c3cccnc23)CC1,inactive: 3.11%
7,O=P1(N(CCCl)CCCl)OCCCS1 (stereo not drawn),inactive: 0.31%
8,O=C(Nc1cc([As](=O)(O)O)ccc1O)c1ccccc1,inactive: 10.6%
9,CC(C)(C)C(=O)NC(Sc1ccncn1)C(Cl)(Cl)Cl (stereo not drawn),inactive: -2.44%
10,O=[N+]([O-])c1ncn(CCn2ncnc2[N+](=O)[O-])n1,inactive: 3.61%
11,O=[N+]([O-])c1cccc(NC2=NCC(CBr)S2)c1 (stereo not drawn),inactive: -0.19%
12,COC(=O)C1(C)COP(=O)(Nc2ccccc2)OC1 (stereo not drawn),inactive: 2.69%
13,O=C(O)CNc1ccc([As](=O)(O)O)cc1,inactive: 8.75%
14,CCCC1OP(N)(=O)OCC1CC (stereo not drawn),inactive: 0.25%
15,O=C(O)c1ccccc1[As](=O)(O)O,inactive: 1.27%
16,CC(=O)Nc1ccc([As](=O)(O)O)cc1,inactive: 0.26%
17,CN(C)P(=O)(N(C)C)n1c(Nc2ccccc2)nnc1-c1ccccc1,inactive: -5.59%
18,O=P(Nc1nc2ccc(Cl)cc2s1)(c1ccccc1)c1ccccc1,inactive: -2.27%
19,CN(C(=O)Cc1ccc(Cl)c(Cl)c1)[C@H]1CCCC[C@@H]1N1CCCC1,inactive: -6.54%
20,Cc1ccc(NP(=O)(Oc2ccccc2F)Oc2ccccc2F)nc1,inactive: 3.47%
21,CCOP(=O)(Nc1ccccc1)OCC,inactive: 13.4%
22,Cc1cc(SC(NC(=O)c2ccc(F)cc2)C(Cl)(Cl)Cl)ncn1 (stereo not drawn),inactive: 0.89%
23,CCN(N=Nc1nonc1N)c1nonc1N,inactive: 3.28%
24,Nc1cccc2ccc([As](=O)(O)O)cc12,inactive: 5.34%
25,NC(=O)c1cc([N+](=O)[O-])cc([N+](=O)[O-])c1N,inactive: 3.76%
26,Cc1ccc(N/C(=N/P(=O)(N2CCOCC2)N2CCOCC2)N2CCOCC2)cc1,inactive: 0.48%

row,SMILES,activation
1,CN(C(=O)Cc1ccc(Cl)c(Cl)c1)[C@H]1CCCC[C@H]1N1CCCC1,inactive: -3.43%
2,Cc1ccc(OP(=O)(Nc2nccs2)Oc2ccc(C)cc2)cc1,inactive: -1.35%
3,COc1ccccc1OP(=O)(Nc1ccc(C)cn1)Oc1ccccc1OC,inactive: -0.2%
4,Clc1ccc(Cl)c(NC2=NCC(CBr)S2)c1 (stereo not drawn),inactive: 0.53%
5,CN1CCCC(OC(=O)C(c2ccccc2)c2ccccc2)C1 (stereo not drawn),inactive: -0.73%
6,CC(C)CC(=O)NC(Sc1ccc(Cl)cc1)C(Cl)(Cl)Cl (stereo not drawn),inactive: 0.92%
7,Nc1cc(N)c2nonc2c1[N+](=O)[O-],inactive: 1.24%
8,O=C(NC(Sc1ccncn1)C(Cl)(Cl)Cl)c1ccccc1 (stereo not drawn),inactive: 0.06%
9,Oc1ccccc1CNc1ccccn1,inactive: -1.44%
10,O=[N+]([O-])C1C(O)C(O)C([N+](=O)[O-])C(O)C1O (stereo not drawn),inactive: -2.39%
11,CCOc1ccc(C2=NCC(CBr)S2)cc1 (stereo not drawn),inactive: 3.78%
12,O=P1(Nc2nc3ccc(Cl)cc3s2)COc2ccccc2O1 (stereo not drawn),inactive: 2.57%
13,CCc1cc(O)c([N+](=O)[O-])c(C)c1[N+](=O)[O-],inactive: 11.2%
14,CC(C)(C)C(=O)NC(Sc1ccccc1)C(Cl)(Cl)Cl (stereo not drawn),inactive: -4.68%
15,COC(=O)C1(C)COP(=O)(NCc2ccccc2)OC1 (stereo not drawn),inactive: 3.63%
16,N#C/C(=C\c1ccc(N(CCBr)CCBr)cc1)C(N)=O,inactive: -2.67%
17,CC(=O)c1ccc(N2CC2c2ccncc2)cc1 (stereo not drawn),inactive: -0.1%
18,C[C@@H]1C=CCP(=O)(Oc2ccccc2)O1 (stereo partly drawn),inactive: -1.4%
19,C[C@H]1OP(=O)(Oc2ccccc2)C[C@@H]2O[C@@H]21 (stereo partly drawn),inactive: -0.36%
20,Cc1ccccc1CN(C)C(=O)COC(=O)C(O)(c1ccccc1)c1ccccc1,inactive: 4.5%
21,CC(=O)Nc1ccc(Oc2c([N+](=O)[O-])cc([N+](=O)[O-])cc2[N+](=O)[O-])cc1,inactive: -1.68%
22,CC(=O)Nc1ccc([As](=O)(O)O)c(O)c1,inactive: -4.01%
23,O=C(NC1CCS(=O)(=O)C1)NP(=S)(Oc1ccccc1)Oc1ccccc1 (stereo not drawn),inactive: 3.66%
24,CCNC(=S)/N=C(\N)N[N+](=O)[O-],inactive: 1.25%
25,Cc1ccc(NP(=O)(Oc2cccc(C)c2)Oc2cccc(C)c2)nc1,inactive: 0.93%
26,c1ccc(-c2nn[nH]n2)c(-c2nn[nH]n2)c1,inactive: 0.5%

row,SMILES,activation
1,O=P1(N(CCCl)CCCl)OCCC2CCCCN21 (stereo not drawn),inactive: -0.91%
2,CC(=O)NC(SC(=S)N(CC(C)C)CC(C)C)C(Cl)(Cl)Cl (stereo not drawn),inactive: 1.59%
3,Cc1ccc(OP(=O)(Nc2ccccn2)Oc2ccc(C)cc2)cc1,inactive: -7.28%
4,COC(=O)c1cc2c(s1)N=C(c1ccccc1)N(C)P2(=O)N1CCOCC1 (stereo not drawn),inactive: -1.43%
5,CCC(=O)N1C2C3N(C(=O)CC)C1C1N(C(=O)CC)C(C(N1C(=O)CC)N3C(=O)CC)N2C(=O)CC,inactive: -0.42%
6,O=C(OC1CN2CCC1CC2)c1ccccc1 (stereo not drawn),inactive: -9.38%
7,CN(C)C(=O)Oc1noc2ccccc12,inactive: 4.3%
8,O=c1c2cc([N+](=O)[O-])ccc2[nH]c2c([N+](=O)[O-])cc([N+](=O)[O-])cc12,inactive: -6.5%
9,Cc1ccccc1OP(=O)(Nc1ccccn1)Oc1ccccc1C,inactive: 5.87%
10,CC(NC(=O)COC(=O)C(O)(c1ccccc1)c1ccccc1)c1ccccc1 (stereo not drawn),inactive: 3.79%
11,Nc1ccc(CCCCOc2ccccc2)cc1,inactive: -5.65%
12,COc1ccc(N)c([N+](=O)[O-])c1[N+](=O)[O-],active: 15%
13,CN(C)C1(CNC(=O)c2ccc(Cl)c(S(N)(=O)=O)c2)CCCCC1,inactive: 5.69%
14,O=P(Nc1ccccn1)(c1ccc(Br)cc1)c1ccc(Br)cc1,inactive: -0.4%
15,C[C@H]1OP(=O)(Oc2ccccc2)[C@H](O)[C@H](O)[C@H]1N=[N+]=[N-] (stereo partly drawn),inactive: -4.73%
16,O=P(Nc1nc2ccccc2s1)(c1ccccc1)c1ccccc1,inactive: -1.5%
17,CC(=O)NC(SC(=S)N(C)C)C(Cl)(Cl)Cl (stereo not drawn),inactive: -4.54%
18,O=[N+]([O-])c1ncn(CCn2cnc([N+](=O)[O-])n2)n1,inactive: 11.8%
19,O=[N+]([O-])c1ccc(O)c(/C=N/Nc2ccc([N+](=O)[O-])cc2[N+](=O)[O-])c1,inactive: -0.96%
20,O=[As](O)(c1ccccc1)c1ccc(O)cc1,inactive: 1.26%
21,Nc1ccc([As](=O)(O)c2ccc([N+](=O)[O-])cc2)cc1,inactive: 1.94%
22,C(Cc1nn[nH]n1)Cc1nn[nH]n1,inactive: -1.32%
23,O=C(OC1CN2CCC1CC2)c1cccc(Cl)c1 (stereo not drawn),inactive: -4.97%
24,O=P(Nc1nccs1)(c1ccccc1)c1ccccc1,inactive: -0.34%
25,CC(C)C(=O)NC(Sc1ccccc1)C(Cl)(Cl)Cl (stereo not drawn),inactive: -1.89%
26,c1nnnn1CCn1cnnn1,inactive: 2.3%
